In the assay the test system is HepG2 cells. Description: cDNA array (GF200) expression profiling. It counts as cell-based, human.

For the molecule `CC(=O)Nc1ccc(O)cc1` [acetaminophen], the Metallothionein-1H induction entry is on record as “strongly induced”. For the same molecule, the “Global differential gene expression (rms) over time” value (1 to 24 hr, 20 mM acetaminophen, 16 mM caffeine, 100 mM thioacetamide) is “reaches a peak between 6 and 18 hr”.

The record behind these values is patent US20020110808A1, “Toxicant-induced differential gene expression” (priority 2000, published 2002).
